In ChEMBL document CHEMBL1130370, “Novel hydroxyphosphonate inhibitors of CD-45 tyrosine phosphatase” (Bioorg Med Chem Lett, 1997):

Target: T1, Receptor-type tyrosine-protein phosphatase C (Homo sapiens) (UniProt P08575)
T1 sequence (whole entry): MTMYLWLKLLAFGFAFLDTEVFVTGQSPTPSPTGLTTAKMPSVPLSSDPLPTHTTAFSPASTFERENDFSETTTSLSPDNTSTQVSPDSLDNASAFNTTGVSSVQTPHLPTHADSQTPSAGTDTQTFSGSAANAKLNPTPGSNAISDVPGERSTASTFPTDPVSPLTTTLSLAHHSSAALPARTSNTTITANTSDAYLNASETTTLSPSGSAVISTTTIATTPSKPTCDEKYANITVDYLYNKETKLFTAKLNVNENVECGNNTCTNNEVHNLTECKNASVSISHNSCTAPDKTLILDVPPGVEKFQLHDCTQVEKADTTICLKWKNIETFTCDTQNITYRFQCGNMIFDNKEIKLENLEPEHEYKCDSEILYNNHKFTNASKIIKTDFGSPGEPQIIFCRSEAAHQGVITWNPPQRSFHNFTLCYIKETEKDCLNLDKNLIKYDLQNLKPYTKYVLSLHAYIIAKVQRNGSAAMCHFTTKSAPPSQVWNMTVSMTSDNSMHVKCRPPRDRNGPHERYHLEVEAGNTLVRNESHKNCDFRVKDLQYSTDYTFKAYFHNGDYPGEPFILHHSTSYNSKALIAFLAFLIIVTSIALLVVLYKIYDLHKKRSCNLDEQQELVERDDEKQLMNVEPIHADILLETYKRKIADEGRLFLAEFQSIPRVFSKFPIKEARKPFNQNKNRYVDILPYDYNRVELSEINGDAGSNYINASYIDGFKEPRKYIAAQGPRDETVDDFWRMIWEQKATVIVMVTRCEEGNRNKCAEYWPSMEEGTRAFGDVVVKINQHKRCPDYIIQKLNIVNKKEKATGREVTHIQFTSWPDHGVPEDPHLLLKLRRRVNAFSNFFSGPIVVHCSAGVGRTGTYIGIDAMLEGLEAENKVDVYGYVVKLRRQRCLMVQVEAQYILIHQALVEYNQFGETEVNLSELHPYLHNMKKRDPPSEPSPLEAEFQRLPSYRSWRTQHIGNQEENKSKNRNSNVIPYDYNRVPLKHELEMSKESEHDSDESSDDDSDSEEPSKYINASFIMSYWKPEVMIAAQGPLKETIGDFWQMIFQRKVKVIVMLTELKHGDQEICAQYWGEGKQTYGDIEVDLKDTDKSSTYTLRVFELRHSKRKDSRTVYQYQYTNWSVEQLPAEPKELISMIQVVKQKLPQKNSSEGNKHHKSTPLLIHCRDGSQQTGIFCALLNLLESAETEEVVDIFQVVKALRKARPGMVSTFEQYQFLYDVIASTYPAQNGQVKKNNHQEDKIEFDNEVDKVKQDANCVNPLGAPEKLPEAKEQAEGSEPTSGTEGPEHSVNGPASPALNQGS
Test: Compound was tested for its inhibitory activity against CD-45 tyrosine phosphatase of Jurkat cell membrane at 500 uM concentration

With `[N-]=[N+]=Nc1ccc([N+](=O)[O-])cc1C(O)P(=O)(O)O` (stereo unspecified) the inhibition was 97%.
